In patent US20080280851A1 (Clavis Pharma AS, priority 2005, published 2008):

Assays:
[1] = test system: Colon 6044 (human colon carcinoma); conditions: mouse, in vivo
[2] = test system: Colon 6044 (human colon carcinoma); test: Antitumour activity in Co6044 after oral administration (Table 3); conditions: for Optimum T/C (on day): Q3 × 5

**Q.** Nc1ccn([C@@H]2O[C@H](CO)[C@@H](O)C2(F)F)c(=O)n1 [Gemcitabine, 2′,2′-difluorodeoxycytidine, reference compound] was tested. Which “toxicity after oral administration compared to intraperitoneal (parenteral) administration” value [1] did it give?
**A.** largely increased

**Q.** What about the “Optimum T/C (on day)” value ([2]; 120 mg/kg) of the same compound?
**A.** Toxic

**Q.** And the “Toxic deaths (d)” value ([2]; 120 mg/kg, Q3 × 5, deaths on days 11-16)?
**A.** 7/8 (11-16)

**Q.** What about the “Optimum T/C (on day)” value ([2]; 180 mg/kg) of the same compound?
**A.** Toxic

**Q.** What about the “Toxic deaths (d)” value ([2]; 180 mg/kg, Q3 × 5, deaths on days 11-16) of the same compound?
**A.** 7/8 (11-16)

**Q.** What about the “Optimum T/C (on day)” value ([2]; 240 mg/kg) of the same compound?
**A.** Toxic

**Q.** What about the “Toxic deaths (d)” value ([2]; 240 mg/kg, Q3 × 5, deaths on days 11-15) of the same compound?
**A.** 8/8 (11-15)
